Experimental data published in the NIST ThermoML archive (doi:10.1016/j.fluid.2018.07.028).

Test: activity coefficient (dimensionless); of the first substance listed, at infinite dilution; xn = mol fraction of the nth substance listed
Conditions: 101.33 kPa, Liquid, Chromatography, x1 = 0

CCCCOCCCC [dibutyl ether] + CCCC[P+](CCCC)(CCCC)CCCC.O=S(=O)([N-]S(=O)(=O)C(F)(F)F)C(F)(F)F
Conditions | activity coefficient
358.15 K | 4.19
368.15 K | 4.19
378.15 K | 4.19
388.15 K | 4.19
398.15 K | 4.2
408.15 K | 4.2
